Counter-ions that a name gives are not always drawn. Like-named read-outs stand apart in the source and are kept apart here.
Molecular target: N-terminal GST tagged recombinant human RET cytoplasmic domain (aa 658-end), wild type RET kinase (Homo sapiens (Human), UniProt P07949)
Assay: RET Enzyme Assay (HTRF KinEASE-TK), wild type RET
Format: biochemical

Sequences of proteins named here, by UniProt entry; tags and fusion partners are left off. Residues count along the entry.
UniProt P07949, 658-1114: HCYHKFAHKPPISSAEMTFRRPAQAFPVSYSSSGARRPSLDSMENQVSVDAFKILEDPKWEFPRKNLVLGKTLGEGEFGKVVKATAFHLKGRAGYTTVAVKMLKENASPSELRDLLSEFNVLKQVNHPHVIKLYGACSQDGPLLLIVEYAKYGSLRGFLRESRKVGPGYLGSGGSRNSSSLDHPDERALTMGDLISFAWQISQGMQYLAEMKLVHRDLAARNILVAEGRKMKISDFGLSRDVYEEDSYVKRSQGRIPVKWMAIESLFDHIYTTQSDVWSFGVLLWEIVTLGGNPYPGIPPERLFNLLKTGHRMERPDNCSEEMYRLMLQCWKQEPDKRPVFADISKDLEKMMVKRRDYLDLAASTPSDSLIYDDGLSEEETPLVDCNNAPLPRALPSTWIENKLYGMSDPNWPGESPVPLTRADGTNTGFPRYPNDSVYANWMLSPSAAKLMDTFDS

IC50 (wild type RET, 1 mM ATP) | SMILES | IC50
3.05 µM | Cn1cc(-c2cc(-c3ccc(N4CCN(C(=O)OC(C)(C)C)CC4)nc3)c3ccnn3c2)cn1 [Example 311, tert-butyl 4-(5-(6-(1-methyl-1H-pyrazol-4-yl)pyrazolo[1,5-a]pyridine-4-yl)pyridine-2-yl)piperazine-1-carboxylate] | 
 | C[C@@H](c1ccccc1)N1CCN(c2ccc(-c3cc(-c4cnn(C)c4)cn4ncc(C#N)c34)cn2)CC1 [Example 422, (S)-6-(1-methyl-1H-pyrazol-4-yl)-4-(6-(4-(1-phenylethyl)piperazin-1-yl)pyridine-3-yl)pyrazolo[1,5-a]pyridine-3-carbonitrile dihydrochloride] | 0.0129 µM

Reference: patent US10023570B2 (Array BioPharma, Inc., priority 2015, dated 2018)
